Biological target: Serine/threonine-protein kinase pim-1 (Homo sapiens, UniProt P11309)
Experiment: A fluorescent-labeled Pim-specific peptide substrate, was custom synthesized by American Peptide Company (Sunnyvale, Calif.). Reaction Buffer contained 10 mM HEPES, pH 7.2, 10 mM MgCl2, 0.01% Tween 20, 2 mM DTT.

By UniProt entry, the sequences of proteins in these tests, tags left out.
UniProt P11309, whole entry: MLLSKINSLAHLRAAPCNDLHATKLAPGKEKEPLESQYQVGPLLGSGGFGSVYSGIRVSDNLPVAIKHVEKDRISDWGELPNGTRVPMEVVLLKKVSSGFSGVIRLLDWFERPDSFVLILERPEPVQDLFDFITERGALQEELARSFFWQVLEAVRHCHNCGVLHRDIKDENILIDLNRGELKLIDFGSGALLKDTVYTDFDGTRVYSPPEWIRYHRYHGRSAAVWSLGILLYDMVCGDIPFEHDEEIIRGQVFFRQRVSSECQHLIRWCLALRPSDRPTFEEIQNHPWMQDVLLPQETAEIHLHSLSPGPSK

Ki: 0.085 nM
Compound: NC[C@H]1CCN(c2cccc(-c3n[nH]c4cnc(-c5cccnc5)cc34)n2)C1
